# scFv variants of Ab-14 (light chain) against a SARS-CoV-2 spike peptide

Binding partner: SARS-CoV-2 spike HR2 peptide, sequence PDVDLGDISGINAS.

Parent scFv Ab-14: VH joined to VL by the linker GGGGSGGGGSGGGGS. Changes lie in the light chain CDRs alone.
VH: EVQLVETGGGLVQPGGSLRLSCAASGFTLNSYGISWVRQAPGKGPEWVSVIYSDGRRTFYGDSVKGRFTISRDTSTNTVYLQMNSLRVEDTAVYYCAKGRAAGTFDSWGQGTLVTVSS
VL: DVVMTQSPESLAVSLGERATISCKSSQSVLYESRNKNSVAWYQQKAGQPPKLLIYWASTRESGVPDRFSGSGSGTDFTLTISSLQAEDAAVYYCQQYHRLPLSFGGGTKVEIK

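The starting antibody came from a phage panning campaign against this peptide. In library AAYL50, one, two or three CDR residues were substituted; doubles and triples were drawn at random. In AlphaSeq, yeast of one mating type display the scFv and yeast of the other type display the target. Pairs that bind mate more often; barcode pairs of the diploids are counted by sequencing. Read counts were normalised to the haploid input and turned into Kd by a linear fit to BCL2-family pairs of known affinity, for each replicate. Each pool was mated in three replicate cultures.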

The parent's light chain CDRs are KSSQSVLYESRNKNSVA, WASTRES, QQYHRLPLS; each variant's own CDRs replace them letter for letter. The read-out is the apparent dissociation constant on a log10 scale (nM): the lower, the stronger. Averages over replicates are reported, and they cover detected replicates only. "ND" marks a missing value. The strain was present, yet no cells mated with the target were sequenced in that replicate, which points to weak or no binding. In this assay the parent's reference entry averaged 0.65; its copy inside this library read 1.68. Empty control strains, which show no peptide, gave a signal in 18% of pairings with library AAYL50; the median was 4.19 and 95% of these signals were weaker than 2.99. No background was subtracted. For each scFv, signals with the empty controls are counted beside the result, with their mean in brackets.

CDR-L1,CDR-L2,CDR-L3,log10 Kd (nM) by replicate,mean log10 Kd (nM),signal with controls
GSSQSALYESRNKNSVA,WASTRES,QQYHRLPLS,1.47 1.42 2.56,1.81,2 of 9 (3.14)
KSSQSVLYESRNKNLVA,WASTRNS,CQYHRLPLS,ND ND ND,ND,0 of 9
KSSQSVLYESRNKNPVA,WASTRES,QQYHRQPVS,0.96 1.08 1.05,1.03,1 of 9 (3.56)
KMSQSVLYESRNKNSVA,WASTRGS,QQYHRLLLS,1.50 1.42 1.15,1.36,0 of 9
TSSQSVLYESNNKNSVA,WWSTRES,QQYHRLPLS,ND ND ND,ND,1 of 9 (4.62)
WSSQSVLYESRNKNSVA,WASTRNK,QQYHRLPLS,ND ND ND,ND,1 of 9 (4.51)
KSSLSVLYEGRNKNSVA,WASTRES,NQYHRLPLS,ND ND ND,ND,0 of 9
ASSQSVLYESRNKNSVA,WACTRES,QVYHRLPLS,ND ND ND,ND,0 of 9
RSSQSVLYESRNKNSVA,WASTAES,QCYHRLPLS,4.38 4.85 ND,4.61,4 of 9 (4.54)
KSGQSVLLESRNKNSVA,WASTRES,QQYHRLNLS,ND ND ND,ND,0 of 9
KSSQSVHYEWRNKNSNA,WASTRES,QQYHRLPLS,ND ND ND,ND,2 of 9 (4.52)
KSSQSVLYESRNKNSVA,WASTREQ,QQYHFLPLS,0.53 0.87 0.59,0.66,0 of 9
KSSQSVLYESRNKNSVA,WAMTRWS,QQYHRLQLS,4.70 4.31 ND,4.51,3 of 9 (4.69)
KSSQSVLYESRNKNSVA,WAVTRES,QQYHRWPGS,ND ND ND,ND,0 of 9
KTSKSVLYESRNKNSVA,WANTRES,QQYHRLPLS,1.57 1.26 1.77,1.53,1 of 9 (3.86)
TSSQSVLYESRDKNSVA,WASTRES,QQHHRLPLS,ND 3.32 ND,3.32,1 of 9 (3.97)
KSSQSVLYRSRNANSTA,WASTRES,QQYHRLPLS,ND ND ND,ND,5 of 9 (4.20)
KSSQSVLYISRNKNSVA,WKSTRES,QQYHRLPLS,ND ND ND,ND,0 of 9
KTSQSVLYESRNKNSTA,WASTRES,QQYHRLPLS,6.54 3.59 5.12,5.08,7 of 9 (4.65)
KSSQSVLCESRNKNSMI,WASTRES,QQYHRLPLS,5.20 4.19 ND,4.69,7 of 9 (4.71)
KSSQSVLYESRNKNSVA,WASTRES,QRYHRLPLG,ND ND 3.47,3.47,3 of 9 (4.34)
KSDQSVLYESRNKNSVV,WASTRES,QQYHRLHLS,1.82 2.24 1.83,1.97,1 of 9 (3.74)
KSSQSVLYESRNKNSVA,WRSTRES,QQYQRLPLP,ND ND ND,ND,3 of 9 (4.47)
KSSQSVAYESRNKNSVA,WASTRES,QQYRRLPLS,2.11 2.06 2.49,2.22,1 of 9 (4.41)
KSYQSVLYESRNKQSVA,WARTRES,QQYHRLPLS,ND ND ND,ND,0 of 9
KSSLSVLYLSRNKNSVA,WASTRES,QQYHRQPLS,2.21 1.95 1.93,2.03,1 of 9 (3.73)
KSSQSPLYSSRNKNSVA,WASTRES,QQYHRTPLS,4.26 3.78 ND,4.02,2 of 9 (3.60)
KYSQSGLYESRNKNSVA,WASQRES,QQYHRLPLS,0.13 0.45 0.45,0.34,8 of 9 (4.84)
KSSQSVLYESRNKQSVA,WASTRES,QQYHFLPAS,ND ND ND,ND,0 of 9
KQSQSVLYESRNKNSVA,WASTRAS,QQYHKLPLS,ND ND ND,ND,0 of 9
KSSQSDLYISRNKNSVA,WASTRES,QQYHRLPLS,ND ND 5.75,5.75,3 of 9 (4.02)
KSSQGVLIESRNKNSVN,WASTRES,QQYHRLPLS,ND ND ND,ND,0 of 9
KSSQSVLYESRIKNSRA,WASTRES,QQYHFLPLS,ND ND ND,ND,0 of 9
KSSQSVLYEVRNKNSVA,KASTRES,QQEHRLPLS,3.48 2.75 3.53,3.25,1 of 9 (3.73)
KSSSSVLYESRFKNSVA,WASTRES,QQYHRLKLS,1.09 1.29 1.25,1.21,1 of 9 (4.48)
KSSQSVIYESRNKNGVA,WASTRES,QQYHRLPLS,2.57 2.12 3.16,2.61,3 of 9 (4.20)
KASQSVLYESRNKNSVA,WASTRES,QQYHCLRLS,3.62 3.31 3.56,3.49,5 of 9 (4.52)
CSSQSVLYESRNKNSVA,WASTRES,QQWHRLELS,ND ND ND,ND,2 of 9 (3.16)
KSSRSVLYESRNKNSVA,WASTAES,QQYHRLPLS,3.07 2.41 3.30,2.93,1 of 9 (3.33)
KSSQSVLYESRNKNSVA,WDSTRES,QQYHRSALS,4.68 5.09 ND,4.88,4 of 9 (3.45)
KSSQSVLYEPRCKNSVA,WASTREA,QQYHRLPLS,0.88 1.11 1.17,1.05,2 of 9 (4.85)
KSSQSVLYESRNKNHVA,WASTRES,QQTHPLPLS,3.94 3.35 4.27,3.85,4 of 9 (4.08)
KSRQSVLYESGNKNSVA,WASSRES,QQYHRLPLS,2.44 2.75 3.17,2.79,1 of 9 (4.56)
KSSQSVLYEERNKNSVA,WAYTRES,QQYERLPLS,2.39 2.20 2.54,2.38,1 of 9 (3.12)

The 3 strongest on average among those seen in every replicate, once more:

CDR-L1,CDR-L2,CDR-L3,log10 Kd (nM) by replicate,mean log10 Kd (nM),signal with controls
KYSQSGLYESRNKNSVA,WASQRES,QQYHRLPLS,0.13 0.45 0.45,0.34,8 of 9 (4.84)
KSSQSVLYESRNKNSVA,WASTREQ,QQYHFLPLS,0.53 0.87 0.59,0.66,0 of 9
KSSQSVLYESRNKNPVA,WASTRES,QQYHRQPVS,0.96 1.08 1.05,1.03,1 of 9 (3.56)

From the AlphaSeq antibody data of Engelhart et al. 2022 (doi:10.1038/s41597-022-01779-4), copy in the FLAb collection.